In the assay the target is Coagulation factor X (Homo sapiens, UniProt P00742). Description: Inhibition of human factor Xa.

Chains of the proteins cited; added tags and fusions are not shown. Residues count along the entry.
UniProt P00742, 41-179 limits assumed: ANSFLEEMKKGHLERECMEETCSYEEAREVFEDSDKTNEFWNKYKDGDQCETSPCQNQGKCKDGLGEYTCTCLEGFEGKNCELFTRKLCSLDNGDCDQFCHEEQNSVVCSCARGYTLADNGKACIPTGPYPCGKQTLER
UniProt P00742, 235-488 limits assumed: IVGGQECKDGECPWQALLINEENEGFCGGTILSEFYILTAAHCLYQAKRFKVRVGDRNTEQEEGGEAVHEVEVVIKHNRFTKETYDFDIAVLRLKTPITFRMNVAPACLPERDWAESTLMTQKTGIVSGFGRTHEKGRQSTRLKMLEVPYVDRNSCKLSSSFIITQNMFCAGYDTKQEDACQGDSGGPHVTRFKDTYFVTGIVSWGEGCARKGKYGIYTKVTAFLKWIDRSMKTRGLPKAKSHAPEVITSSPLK

On to `O=C(NC[C@@H]1OC(=O)N2c3ccc(N4CCCCC4=O)cc3OC[C@@H]12)c1ccc(Cl)s1`, for which the half-maximal inhibitory concentration (IC50) (usually the concentration at which inhibition is half-maximal) is 190 nM.

These data come from ChEMBL document CHEMBL5550106, “Recent advances in the exploration of oxazolidinone scaffolds from compound development to antibacterial agents and other bioactivities” (Eur J Med Chem, 2024).
